Data taken from patent US6630464B1, “Cyclin dependent kinase (CDK)4 inhibitors and their use for treating cancer” (The United States of America as represented by the …, priority 1997, dated 2003).

System: 60 human cancer cell lines of the NCI drug screen panel
Assay: In vitro antitumor activity, sulforhodamine-B assay, NCI drug screen panel
Assay type: cell-based
Details: 48 h, 2 day growth assay of the NCI drug screen
Experimental: Cell lines, compounds, and in vitro sensitivity testing. Exponentially growing cultures of the nine non-small cell lung, eight melanoma, eight renal, eight breast, seven colon, six brain, six leukemia, six ovarian, and two prostate cancer cell lines from the NCI drug screen panel were used. Compounds were obtained from the Drug Synthesis and Chemistry Branch, National Cancer Institute. In vitro antitum or activity of compounds was determined using a sulforhodamine-B assay in the 60 human cancer cell lines of the NCI drug screen panel.
Compounds of the present invention have been subjected to the drug screening procedure employed by the National Cancer Institute for the screening of drugs having possible anticancer utility. The screening procedure uses a diverse, disease-oriented panel consisting of different human tumor cell lines organized into disease-specific subpanels. The compounds of the present invention were tested over a range of concentrations for cytotoxic or growth-inhibitory effects against cell lines comprising the panel. The subpanels represented diverse histologies (leukemias, melanomas, and tumors of the lung, colon, kidney, breast, ovary, and brain). […]
To produce data for the mean-graph format, a compound concentration that produced a target level response was calculated for each cell line. Three different response parameters were evaluated. […]

## Nc1ccc2c(=S)c3ccccc3[nH]c2c1 [Compound 3, 3-Amino-10H-acridine-9-thione]
  GI50: 30 µM
